System: Rattus norvegicus
Assay: Unbound clearance in rat at 1 mg/kg, iv and 1 mg/kg, po
Format: ADME, organism-based
Conditions: in vivo

CL free: 26 mL/min/kg
Structure (SMILES): CNC(=O)c1cc(OC)c(O[C@@H](C)C(=O)N2CCN(C(=O)c3ccccc3)C[C@H]2C)cn1
